Earlier results, collected in paper PMC12979414, “Ascending single-dose study of the safety, pharmacokinetics, and pharmacodynamics of CSTI-500, a novel monoamine triple reuptake inhibitor, first-in-human” (Psychopharmacology, 2025).

Test system: SERT
Conditions: 25 mg; ref Meyer et al. [2004]

For CN[C@H]1CC[C@@H](c2ccc(Cl)c(Cl)c2)c2ccccc21 [sertraline], the “striatal SERT occupancy” value is listed as “approximately 70%”.
